# According to patent US8959984B2, “Proteome-wide quantification of small molecule binding to cellular target proteins” (priority 2007, dated 2015):
# Amino acid sequences for entries named in this document (tags omitted). A change or cut given only in a name is not applied to a line headed by its entry.
# UniProt P27361, whole entry: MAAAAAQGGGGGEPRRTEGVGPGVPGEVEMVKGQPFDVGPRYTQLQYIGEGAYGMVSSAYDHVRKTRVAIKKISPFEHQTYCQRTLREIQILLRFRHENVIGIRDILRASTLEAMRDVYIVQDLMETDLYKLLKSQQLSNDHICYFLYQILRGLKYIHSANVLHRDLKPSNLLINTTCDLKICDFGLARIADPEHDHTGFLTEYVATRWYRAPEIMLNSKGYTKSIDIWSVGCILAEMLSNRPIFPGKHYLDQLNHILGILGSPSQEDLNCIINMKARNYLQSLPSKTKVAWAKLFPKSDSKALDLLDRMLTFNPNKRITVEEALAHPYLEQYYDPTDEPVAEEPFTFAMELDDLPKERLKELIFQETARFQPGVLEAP
# UniProt P27448: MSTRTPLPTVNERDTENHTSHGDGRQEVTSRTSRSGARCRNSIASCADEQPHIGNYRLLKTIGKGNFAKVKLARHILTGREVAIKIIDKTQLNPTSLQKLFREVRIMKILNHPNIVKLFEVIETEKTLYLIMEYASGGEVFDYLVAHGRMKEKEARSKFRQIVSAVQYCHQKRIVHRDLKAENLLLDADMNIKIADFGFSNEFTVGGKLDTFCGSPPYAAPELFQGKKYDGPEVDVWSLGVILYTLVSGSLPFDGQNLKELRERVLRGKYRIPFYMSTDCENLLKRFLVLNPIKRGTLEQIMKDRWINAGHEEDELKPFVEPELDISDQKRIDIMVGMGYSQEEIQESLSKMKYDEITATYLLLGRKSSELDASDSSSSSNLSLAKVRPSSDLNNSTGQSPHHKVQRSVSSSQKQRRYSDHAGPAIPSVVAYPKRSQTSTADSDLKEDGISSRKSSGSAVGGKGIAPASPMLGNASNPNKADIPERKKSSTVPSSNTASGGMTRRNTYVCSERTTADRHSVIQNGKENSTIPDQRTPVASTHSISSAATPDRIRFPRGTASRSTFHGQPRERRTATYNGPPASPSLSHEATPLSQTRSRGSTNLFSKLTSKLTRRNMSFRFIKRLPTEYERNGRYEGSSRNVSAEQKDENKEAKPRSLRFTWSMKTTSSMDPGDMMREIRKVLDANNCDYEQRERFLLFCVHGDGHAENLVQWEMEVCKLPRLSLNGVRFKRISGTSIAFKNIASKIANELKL
# UniProt P35790, whole entry: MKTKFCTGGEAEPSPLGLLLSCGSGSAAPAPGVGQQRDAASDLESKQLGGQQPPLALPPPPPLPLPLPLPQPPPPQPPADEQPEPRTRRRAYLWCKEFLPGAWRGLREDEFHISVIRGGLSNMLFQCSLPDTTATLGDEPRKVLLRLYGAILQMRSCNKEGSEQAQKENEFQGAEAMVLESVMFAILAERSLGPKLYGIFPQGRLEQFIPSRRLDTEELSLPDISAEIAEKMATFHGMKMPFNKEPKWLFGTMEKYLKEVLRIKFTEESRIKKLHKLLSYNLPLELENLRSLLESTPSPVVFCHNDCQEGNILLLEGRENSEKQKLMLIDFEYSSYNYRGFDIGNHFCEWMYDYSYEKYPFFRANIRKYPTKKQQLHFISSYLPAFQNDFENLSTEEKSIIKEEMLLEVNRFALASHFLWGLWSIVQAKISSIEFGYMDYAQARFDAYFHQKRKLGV
# UniProt Q13188: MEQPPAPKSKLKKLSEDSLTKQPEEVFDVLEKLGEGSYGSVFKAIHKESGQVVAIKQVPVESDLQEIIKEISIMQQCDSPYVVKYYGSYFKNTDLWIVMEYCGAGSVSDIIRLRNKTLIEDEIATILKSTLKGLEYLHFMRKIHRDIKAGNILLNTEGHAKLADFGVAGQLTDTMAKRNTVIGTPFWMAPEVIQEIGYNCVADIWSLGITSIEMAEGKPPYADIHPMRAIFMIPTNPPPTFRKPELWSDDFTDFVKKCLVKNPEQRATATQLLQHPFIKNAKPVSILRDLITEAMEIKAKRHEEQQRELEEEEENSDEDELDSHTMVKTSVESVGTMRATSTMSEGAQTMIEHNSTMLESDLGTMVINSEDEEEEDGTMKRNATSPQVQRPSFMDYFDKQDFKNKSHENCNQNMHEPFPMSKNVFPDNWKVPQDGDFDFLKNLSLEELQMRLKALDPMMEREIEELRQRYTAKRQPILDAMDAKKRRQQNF
# UniProt Q7KZI7: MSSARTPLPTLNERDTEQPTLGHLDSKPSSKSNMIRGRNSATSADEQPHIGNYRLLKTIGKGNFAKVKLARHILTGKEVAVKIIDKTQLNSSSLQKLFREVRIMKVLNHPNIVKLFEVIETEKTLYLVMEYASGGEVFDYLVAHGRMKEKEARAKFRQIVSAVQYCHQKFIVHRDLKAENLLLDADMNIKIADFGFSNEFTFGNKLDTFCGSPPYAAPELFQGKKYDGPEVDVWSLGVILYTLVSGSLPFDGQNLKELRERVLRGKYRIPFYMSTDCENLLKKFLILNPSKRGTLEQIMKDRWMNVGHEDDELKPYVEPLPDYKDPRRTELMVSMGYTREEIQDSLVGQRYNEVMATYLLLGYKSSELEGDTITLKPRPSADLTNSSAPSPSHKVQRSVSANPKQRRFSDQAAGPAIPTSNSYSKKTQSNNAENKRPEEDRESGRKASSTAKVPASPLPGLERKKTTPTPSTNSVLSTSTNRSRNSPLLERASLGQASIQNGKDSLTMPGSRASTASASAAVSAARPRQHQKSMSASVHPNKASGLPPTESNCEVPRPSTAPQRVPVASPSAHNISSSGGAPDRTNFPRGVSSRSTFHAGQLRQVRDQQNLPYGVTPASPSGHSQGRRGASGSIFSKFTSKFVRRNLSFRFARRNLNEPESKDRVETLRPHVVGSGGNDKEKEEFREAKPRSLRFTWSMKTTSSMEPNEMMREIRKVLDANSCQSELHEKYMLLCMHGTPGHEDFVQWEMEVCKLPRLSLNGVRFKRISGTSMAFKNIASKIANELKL
# UniProt Q86UE8, whole entry: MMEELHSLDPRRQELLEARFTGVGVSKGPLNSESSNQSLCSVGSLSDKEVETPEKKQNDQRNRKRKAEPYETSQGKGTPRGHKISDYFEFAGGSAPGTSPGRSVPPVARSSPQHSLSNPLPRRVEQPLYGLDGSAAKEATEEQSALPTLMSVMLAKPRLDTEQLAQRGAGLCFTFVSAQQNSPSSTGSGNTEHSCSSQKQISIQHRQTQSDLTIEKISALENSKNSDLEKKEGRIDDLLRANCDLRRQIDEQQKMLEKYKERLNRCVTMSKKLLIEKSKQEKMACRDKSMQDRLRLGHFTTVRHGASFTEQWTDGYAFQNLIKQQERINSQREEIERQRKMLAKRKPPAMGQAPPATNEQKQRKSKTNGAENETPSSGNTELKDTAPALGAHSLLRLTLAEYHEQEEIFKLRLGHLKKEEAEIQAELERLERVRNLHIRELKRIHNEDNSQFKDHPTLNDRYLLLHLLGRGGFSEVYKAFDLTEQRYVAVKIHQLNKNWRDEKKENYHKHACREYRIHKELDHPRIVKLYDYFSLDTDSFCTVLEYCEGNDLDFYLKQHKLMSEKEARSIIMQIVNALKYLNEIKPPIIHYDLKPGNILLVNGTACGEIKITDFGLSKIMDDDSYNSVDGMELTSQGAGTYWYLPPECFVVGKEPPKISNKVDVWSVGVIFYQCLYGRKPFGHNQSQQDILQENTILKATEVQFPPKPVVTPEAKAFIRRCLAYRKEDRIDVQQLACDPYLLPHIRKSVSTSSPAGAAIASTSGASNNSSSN
# UniProt Q8NFU5: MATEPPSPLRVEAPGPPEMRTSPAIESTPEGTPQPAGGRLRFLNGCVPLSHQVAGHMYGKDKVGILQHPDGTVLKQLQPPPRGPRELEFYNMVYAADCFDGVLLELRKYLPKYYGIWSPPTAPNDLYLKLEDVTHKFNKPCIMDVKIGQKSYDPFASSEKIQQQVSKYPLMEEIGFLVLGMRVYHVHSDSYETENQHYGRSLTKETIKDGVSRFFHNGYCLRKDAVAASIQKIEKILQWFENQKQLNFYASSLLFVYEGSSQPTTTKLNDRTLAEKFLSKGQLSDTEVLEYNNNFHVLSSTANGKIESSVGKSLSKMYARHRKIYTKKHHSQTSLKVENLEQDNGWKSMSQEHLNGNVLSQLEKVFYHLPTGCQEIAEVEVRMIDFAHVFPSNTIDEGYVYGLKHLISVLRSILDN
# Assays:
# Experiment in all cases: Ki determination for immobilized VI16742: two consecutive incubations, control beads, ligand concentration and incubation time controls (Tables 7, 8)
# Format in all cases: binding
# [1] = biological target: cellular target proteins in HeLa cell lysate (Homo sapiens, UniProt P27361)
# [2] = biological target: cellular target proteins in HeLa cell lysate (Homo sapiens, UniProt P27448); settings: Ki (VI16742), MARK3 IPI00220508
# [3] = biological target: cellular target proteins in HeLa cell lysate (Homo sapiens, UniProt P35790); settings: Ki (VI16742), CHKA IPI00409761
# [4] = biological target: cellular target proteins in HeLa cell lysate (Homo sapiens, UniProt Q13188); settings: Ki (VI16742), MST2 (STK3) IPI00411984
# [5] = biological target: cellular target proteins in HeLa cell lysate (Homo sapiens, UniProt Q7KZI7); settings: Ki (VI16742), MARK2 IPI00555838
# [6] = biological target: cellular target proteins in HeLa cell lysate (Homo sapiens, UniProt Q86UE8); settings: Ki (VI16742), TLK2 IPI00337659
# [7] = biological target: cellular target proteins in HeLa cell lysate (Homo sapiens, UniProt Q8NFU5); settings: Ki (VI16742), IPMK IPI00168907
# [8] = biological target: T1, cellular target proteins in HeLa cell lysate (Homo sapiens, UniProt Q96S44); settings: Ki (VI16742), PRPK (TP53RK) IPI00290305
# T1 sequence (Q96S44 1-253): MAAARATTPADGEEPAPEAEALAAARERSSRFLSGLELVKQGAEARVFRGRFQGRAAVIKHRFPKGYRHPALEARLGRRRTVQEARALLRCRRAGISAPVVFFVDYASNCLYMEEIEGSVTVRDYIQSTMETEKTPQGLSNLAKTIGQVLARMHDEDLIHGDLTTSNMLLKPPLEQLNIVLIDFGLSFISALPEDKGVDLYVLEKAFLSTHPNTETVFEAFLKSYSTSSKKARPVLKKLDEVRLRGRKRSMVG
# [9] = biological target: T2, cellular target proteins in HeLa cell lysate (Homo sapiens, UniProt Q9BZL6); settings: Ki (VI16742), PKD2 (PRKD2) IPI00009334
# T2 sequence (Q9BZL6 1-878): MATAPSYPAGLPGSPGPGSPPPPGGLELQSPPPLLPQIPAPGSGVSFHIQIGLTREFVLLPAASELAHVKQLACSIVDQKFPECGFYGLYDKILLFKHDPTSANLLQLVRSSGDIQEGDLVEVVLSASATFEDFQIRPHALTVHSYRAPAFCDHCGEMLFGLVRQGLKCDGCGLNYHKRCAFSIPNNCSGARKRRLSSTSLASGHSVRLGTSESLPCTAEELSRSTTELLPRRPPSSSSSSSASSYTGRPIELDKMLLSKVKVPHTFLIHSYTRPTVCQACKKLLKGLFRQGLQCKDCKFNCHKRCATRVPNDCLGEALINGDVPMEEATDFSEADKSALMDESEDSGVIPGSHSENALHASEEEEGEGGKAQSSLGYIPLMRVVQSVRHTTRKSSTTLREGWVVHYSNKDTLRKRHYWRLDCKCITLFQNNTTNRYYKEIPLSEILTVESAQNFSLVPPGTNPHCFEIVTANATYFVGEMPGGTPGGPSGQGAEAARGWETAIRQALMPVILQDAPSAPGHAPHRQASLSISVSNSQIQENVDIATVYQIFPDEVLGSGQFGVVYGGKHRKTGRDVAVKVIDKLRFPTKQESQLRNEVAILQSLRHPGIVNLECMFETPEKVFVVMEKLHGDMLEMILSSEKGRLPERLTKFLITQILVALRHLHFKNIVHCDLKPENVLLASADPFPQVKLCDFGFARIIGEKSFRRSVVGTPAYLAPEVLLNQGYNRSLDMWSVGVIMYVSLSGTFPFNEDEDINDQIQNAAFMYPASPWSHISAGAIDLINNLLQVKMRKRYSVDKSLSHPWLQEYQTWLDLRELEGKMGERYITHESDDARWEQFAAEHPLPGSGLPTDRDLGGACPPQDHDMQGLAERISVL
smiles,measurement,setting,value
CC(C)n1c(=O)ccc2cnc(Nc3ccc(OCCN)cc3)nc21 [V16742],Ki,[1],42.9 µM
same,Ki,[2],7.71 µM
same,Ki,[3],29.2 µM
same,Ki,[4],46.6 µM
same,Ki,[5],17 µM
same,Ki,[6],38.9 µM
same,Ki,[7],18.6 µM
same,Ki,[8],19 µM
same,Ki,[9],3.56 µM
